Values quoted from earlier work in patent US9061077B2, “Methods of determining renal function using technetium-99m tricarbonyl-nitrilotriacetic acid” (Emory University, priority 2008, dated 2015).

Settings: literature; cited from earlier work

O=C(O)CN(CC(=O)O)CC(=O)O [NTA, nitrilotriacetic acid]
Teratogenicity / genotoxicity: not been found to be teratogenic or genotoxic
